ChEMBL document CHEMBL5579834 (Eur J Med Chem, 2024)

Assay: Drug uptake in human skin fibroblast lysosomes assessed as fold change in corrected total cell fluorescence at 50 uM measured after 2 hrs by LysoTracker Red DND-99 dye based laser scanning confocal microscopy relative to control
Type: ADME, subcellular, Lysosome

SMILES	fold change (FC)
CC1(C)[C@H]2CC[C@](C)(C2)[C@H]1OC(=O)CCCN1CCCCC1	0.32
C[C@@H]1[C@H]2C[C@@H](C[C@H]1OC(=O)CN1CCN(C)CC1)C2(C)C	0.39
CN1CCN(CCCC(=O)O[C@H]2C(C)(C)[C@H]3CC[C@]2(C)C3)CC1	0.44
C[C@@H]1[C@H]2C[C@@H](C[C@H]1OC(=O)CCN1CCN(C)CC1)C2(C)C	0.39
CC1(C)[C@H]2CC[C@](C)(C2)[C@H]1OC(=O)CCN1CCOCC1	0.76
CN1CCN(CC(=O)O[C@H]2C(C)(C)[C@H]3CC[C@]2(C)C3)CC1	0.31
